Values quoted from earlier work as cited in patent US20240315989A1 (priority 2021, published 2024).

Protein sequences, listed by entry. Tags and fused reporters are not part of them.
UniProt Q99720, whole entry: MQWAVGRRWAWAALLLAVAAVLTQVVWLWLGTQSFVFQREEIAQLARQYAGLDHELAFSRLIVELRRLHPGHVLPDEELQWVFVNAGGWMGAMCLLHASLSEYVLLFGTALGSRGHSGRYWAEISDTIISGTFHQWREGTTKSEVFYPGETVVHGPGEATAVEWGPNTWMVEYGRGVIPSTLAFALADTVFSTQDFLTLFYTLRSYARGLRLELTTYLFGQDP

Experiments:
σ1 site [1] = target: T1, σ1 site (Homo sapiens, UniProt Q99720); conditions: read-out: Affinity for σ1 Site (Ki or KD values); cited from earlier work
σ1 site [2] = target: T1, σ1 site; conditions: cited from earlier work

Row | Substance | Ki (σ1 site [1]) | Function on σ1 Site (σ1 site [2])
1 | (+)-SKF-10,047 | < 0.05 µM | Agonist
2 | Pregnenolone sulfate | < 10 µM | 
